Legend:
[1] = tested on: Human Umbilical Vein Endothelial Cell (HUVEC); experiment: Inhibitory effect on growth of human umbilical vein endothelial cell (HUVEC), MTS; type: cell-based; conditions: 10 ng/ml VEGF, absorbance 490 nm
[2] = target: VEGFR2 (KDR) (Homo sapiens (Human), UniProt P35968); experiment: VEGFR2 (KDR) enzyme assay, fluorescence polarization; type: biochemical; conditions: 5 μM ATP, poly(Glu, Tyr) substrate

Chains of the proteins cited; added tags and fusions are not shown. Residues count along the entry.
UniProt P35968, 20-1356: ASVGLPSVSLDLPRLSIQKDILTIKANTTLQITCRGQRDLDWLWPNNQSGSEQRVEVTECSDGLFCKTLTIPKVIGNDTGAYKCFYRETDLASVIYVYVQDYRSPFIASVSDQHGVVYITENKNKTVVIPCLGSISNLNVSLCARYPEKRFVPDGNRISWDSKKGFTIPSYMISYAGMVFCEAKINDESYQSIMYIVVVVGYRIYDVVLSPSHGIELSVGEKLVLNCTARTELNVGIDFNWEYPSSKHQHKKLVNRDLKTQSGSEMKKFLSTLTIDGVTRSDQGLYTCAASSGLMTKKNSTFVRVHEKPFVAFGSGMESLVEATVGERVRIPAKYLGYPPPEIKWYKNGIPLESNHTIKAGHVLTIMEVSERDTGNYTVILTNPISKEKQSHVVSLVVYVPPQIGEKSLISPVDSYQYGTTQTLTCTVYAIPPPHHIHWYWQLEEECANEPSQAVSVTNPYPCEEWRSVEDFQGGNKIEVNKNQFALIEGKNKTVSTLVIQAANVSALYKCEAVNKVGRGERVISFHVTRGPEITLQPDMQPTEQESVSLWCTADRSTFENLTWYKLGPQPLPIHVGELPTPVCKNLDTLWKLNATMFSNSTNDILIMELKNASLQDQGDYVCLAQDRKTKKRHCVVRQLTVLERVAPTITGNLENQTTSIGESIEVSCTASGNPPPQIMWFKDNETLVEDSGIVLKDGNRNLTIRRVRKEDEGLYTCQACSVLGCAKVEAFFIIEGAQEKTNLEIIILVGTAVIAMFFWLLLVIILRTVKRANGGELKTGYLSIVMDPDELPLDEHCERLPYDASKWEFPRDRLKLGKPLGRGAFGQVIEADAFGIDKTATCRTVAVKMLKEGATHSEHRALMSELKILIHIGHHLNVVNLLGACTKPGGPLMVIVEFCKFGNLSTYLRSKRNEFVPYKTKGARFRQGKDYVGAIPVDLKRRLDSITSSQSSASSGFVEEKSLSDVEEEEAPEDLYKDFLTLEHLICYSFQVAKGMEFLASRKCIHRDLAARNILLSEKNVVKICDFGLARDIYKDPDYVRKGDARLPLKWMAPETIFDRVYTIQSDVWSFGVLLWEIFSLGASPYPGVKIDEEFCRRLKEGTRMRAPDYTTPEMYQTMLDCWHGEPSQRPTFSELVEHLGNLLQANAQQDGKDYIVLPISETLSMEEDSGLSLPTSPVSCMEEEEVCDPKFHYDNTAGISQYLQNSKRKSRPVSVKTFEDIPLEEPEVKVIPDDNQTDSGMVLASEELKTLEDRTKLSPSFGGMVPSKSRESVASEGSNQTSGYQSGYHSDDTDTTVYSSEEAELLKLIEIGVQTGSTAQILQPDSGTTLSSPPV

## C=CC(=O)Nc1cc2c(Nc3ccc(Br)cc3F)ncnc2cc1OCCNC(=O)C1CCCN1C (stereo not shown) [Example 98, 1-methyl-pyrrolidine-2-carboxylic acid {2-[6-acryloylamino-4-(4-bromo-2-fluoro-phenylamino)-quinazolin-7-yloxy]-ethyl}-amide]
[1]; Homo sapiens, 96 h
  IC50: 966 nM
[2]
  IC50: 965 nM

## C=CC(=O)Nc1cc2c(Nc3ccc(Br)cc3F)ncnc2cc1OCCNC(=O)C1CCCN1C (stereo not shown) [Example 100, 1-methyl-pyrrolidine-2-carboxylic acid {2-[6-acryloylamino-4-(4-bromo-2-fluoro-phenylamino)-quinazolin-7-yloxy]-ethyl}-amide]
[1]; 96 hours
  IC50: 897 nM
[2]
  IC50: 995 nM

— patent US8846699B2, “Quinazoline derivatives as a multiplex inhibitor and method for the preparation thereof” (Hanmi Pharm. Co., Ltd., priority 2005, dated 2014)
